From patent EP2966079B1, “PYRIDOPYRIMIDINE OR PYRIMIDOPYRIMIDINE COMPOUND, PREPARATION METHOD, PHARMACEUTICAL COMPOSITION AND USE THEREOF” (Shanghai Institute of Materia Medica, Chinese Academy of …, priority 2013, dated 2014) come the findings set out here.

Assay [1] concerns human brain glioma U87MG. Kind of assay: Cell proliferation assay (MTS method), U87MG. It counts as cell-based. The note with it: U-87 MG, 72 h, read-out: U87MG IC50 (µM). As for the experimental part:
(§1) Cell proliferation assay was based on two types of cell lines, i.e., human brain glioma U87MG and human prostate cancer LNCap, both of which were from ATCC. U87MG and LNCap contain PTEN gene deletion, and belongs to mTOR signal-dependent tumor cells. Cell culture media and related reagents were from GIBCO. U87MG cells were cultured in a MEM complete medium (containing 10% fetal bovine serum, 100 U/mL penicillin and 100 µg/mL streptomycin). […] Cells/compound was cultured for 3 days, and MTS method was used to test cell proliferation. MTS and PMS were purchased from Sigma company, a stock solution of MTS/PMS (20:1) was added into the test cells with 20 µL/well. After a suitable time of incubation, the proliferation assay results was recorded on a 96 well plate microplate reader. Relative cell viability% = (A490valueofadministeredgroup−lightvalueoftheblankgroup)/(lightvalueofDMSOgroup−lightvalueofblankgroup) × 100%. [formula]
(§2) The experimental data were processed with Microsoft Office Excel and Graphpad PRISM 5 to calculate IC50.
(In general: Formazan colour is commonly taken as a measure of viable cells.)

Assay [2] deals with human prostate cancer LNCap. The assay is described as follows: Cell proliferation assay (MTS method), LNCap. It counts as cell-based. As to conditions: 72 h, read-out: LNCap IC50 (µM). As for the experimental part:
as §1, §2

Broadly, the IC50 is the point on the concentration scale where inhibition reaches its midpoint.

Bounds are passed on as bounds.

With `COc1ccc(-c2ccc3c(N4C[C@@H](C)O[C@@H](C)C4)nc(N4C5CCC4COC5)nc3n2)cc1CO` [Compound 10, 5-(2-((1R,5S)-3-oxa-8-azabicyclo[3.2.1]octan-8-yl)-4-((2S,6R)-2,6-dimethylmorpholine)pyrido[2,3-d]pyrimidin-7-yl)-2-methoxyphenylmethanol], the half-maximal inhibitory concentration (IC50) in assay [1] was 23.9 µM; in assay [2], above 60 µM.
In the case of `COc1ccc(-c2cc3nc(N4CC5CCC(C4)O5)nc(N4CC5CCC(C4)O5)c3cn2)cc1CO` [Compound 20, (5-(2,4-di(8-oxa-3-azabicyclo[3.2.1]octan-3-yl)pyrido[4,3-d]pyrimidin-7-yl)-2-methoxyphenyl)methanol], the values for the concentration for half-maximal inhibition (IC50) in assay [1] and in assay [2] were 18.7 µM and 2.59 µM, respectively.
On the same counts, the results for `C[C@H]1COCCN1c1nc(N2CC3CCC(C2)O3)nc2cc(-c3ccccc3)ncc12` [Compound 31, 3-(4-((S)-3-methylmorpholinyl)-7-phenylpyrido[4,3-d]pyrimidin-2-yl)-8-oxa-3-azabicyclo[3.2.1]octane] are 1.39 µM and 0.423 µM.
As for `CNC(=O)c1cccc(-c2ccc3c(N4C5CCC4COC5)nc(N4CCOC[C@@H]4C)nc3n2)c1` [Compound 44, 3-(4-(3-oxa-8-azabicyclo[3.2.1]octan-8-yl)-2-((S)-3-methylmorpholinyl)pyrido[2,3-d]pyrimidin-7-yl)-N-methylbenzamide], the IC50 came out at 0.56 µM in assay [1] and 0.24 µM in assay [2].
Regarding `COc1ccc(-c2ccc3c(N4CC5CCC(C4)O5)nc(N4[C@@H]5CC[C@H]4COC5)nc3n2)cc1CO` [Compound 11, 5-(4-(8-oxa-3-azabicyclo[3.2.1]octan-3-yl)-2-((1R,5S)-3-oxa-8-azabicyclo[3.2.1]octan-8-yl)pyrido[2,3-d]pyrimidin-7-yl)-2-methoxyphen ylmethanol], the IC50 stood at 0.28 µM in assay [1] and 0.07 µM in assay [2].
On the same counts, the results for `COc1ccc(-c2ccc3c(N4CC5CCC(C4)O5)nc(N4CC5CCC(C4)O5)nc3n2)cc1CO` [Compound 2, 5-(2,4-di(8-oxa-3-azabicyclo[3.2.1]octan-3-yl)pyrido[2,3-d]pyrimidin-7-yl)-2-methoxyphenyl methanol] are 0.21 µM and 0.89 µM.
As for `C[C@H]1COCCN1c1nc(N2CCOCC2)c2cnc(-c3ccccc3)cc2n1` [Compound 27], the values for the IC50 in assay [1] and in assay [2] were 5.68 µM and 1.68 µM, respectively.
On the same counts, the results for `COc1ccc(-c2ccc3c(N4CCOCC4)nc(N4[C@@H]5CC[C@H]4COC5)nc3n2)cc1CO` [Compound 9, 5-(2-((1R,5S)-3-oxa-8-azabicyclo[3.2.1]octan-8-yl)-4-morpholinylpyrido[2,3-d]pyrimidin-7-yl)-2-methoxyphenylmethanol] are 0.51 µM and 0.32 µM.
On the same counts, the results for `c1ccc(-c2ncc3c(N4CCOCC4)nc(N4CCOCC4)nc3n2)cc1` [Compound 32, 4,4'-(7-phenylpyrimido[4,5-d]pyrimidin-2,4-diyl)-dimorpholine] are 20.4 µM and 6.71 µM.
Turning to `COc1ccc(-c2cc3nc(N4C5CCC4COC5)nc(N4C5CCC4COC5)c3cn2)cc1CO` [Compound 23, (5-(2,4-di(3-oxa-8-azabicyclo[3.2.1]octan-8-yl)pyrido [4,3-d]pyrimidin-7-yl)-2-methoxyphenyl)methanol], the IC50 in assay [1] and in assay [2] was above 60 µM in each case.
In the case of `COc1ccc(-c2cc3nc(N4C[C@@H](C)O[C@@H](C)C4)nc(N4CCOCC4)c3cn2)cc1CO` [Compound 15], the IC50 in assay [1] is 24.5 µM; in assay [2], 9.39 µM.
In the case of `C[C@H]1COCCN1c1nc(N2CCOCC2)nc2cc(-c3ccccc3)ncc12` [Compound 29, (S)-3-methyl-4-(2-morpholinyl-7-phenylpyrido [4,3-d]pyrimidin-4-yl)morpholine], the IC50 stood at 2.29 µM in assay [1] and 0.829 µM in assay [2].
In the case of `COc1ccc(-c2ccc3c(N4CCOC[C@@H]4C)nc(N4C5CCC4COC5)nc3n2)cc1CO` [Compound 8, 5-(2-((1R,5S)-3-oxa-8-azabicyclo[3.2.1]octan-8-yl)-4-((S)-3-methylmorpholine)pyrido[2,3-d]pyrimidin-7-yl)-2-methoxyphenylmethanol], the half-inhibitory concentration (IC50) is 0.07 µM in assay [1] and below 0.027 µM in assay [2].
For the compound `CNC(=O)c1cccc(-c2ccc3c(N4CCOC[C@@H]4C)nc(N4CC5CCC(C4)O5)nc3n2)c1` [Compound 38, 3-(2-(8-oxa-3-azabicyclo[3.2.1]octan-3-yl)-4-((S)-3-methylmorpholinyl)pyrido[2,3-d]pyrimidin-7-yl)-N-methylbenzamide], the values for the IC50 in assay [1] and in assay [2] were 0.47 µM and 0.13 µM, respectively.
For `COc1ccc(-c2cc3nc(N4CCOCC4)nc(N4CCOC[C@@H]4C)c3cn2)cc1CO` [Compound 19, (S)-(2-methoxy-5-(4-(3-methylmorpholinyl)-2-morpholinylpyrido[4,3-d]pyrimidin-7-yl)phenyl)methanol] the same measures were 14.8 µM and 2.75 µM.
On the same counts, the results for `COc1ccc(-c2cc3nc(N4CCOC[C@@H]4C)nc(N4[C@@H]5CC[C@H]4COC5)c3cn2)cc1CO` [Compound 25, (5-(4-((1R,5S)-3-oxa-8-azabicyclo[3.2.1]octan-8-yl)-2-((S)-3-methylmorpholinyl)pyrido[4,3-d]pyrimidin-7-yl)-2-methoxyphenyl)methanol] are 4.97 µM and 1.78 µM.
On the same counts, the results for `CNC(=O)c1cccc(-c2ccc3c(N4CC5CCC(C4)O5)nc(N4C5CCC4COC5)nc3n2)c1` [Compound 52] are 1.01 µM and 0.42 µM.
Take `COc1ccc(-c2ccc3c(N4C5CCC4COC5)nc(N4CC5CCC(C4)O5)nc3n2)cc1CO` [Compound 7]: the IC50 in assay [1] was 0.2 µM; in assay [2], 0.027 µM.
